# scFv variants of Ab-14 (heavy chain) against a SARS-CoV-2 spike peptide

The target is the same throughout: PDVDLGDISGINAS, from the HR2 region of SARS-CoV-2 spike.

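Phage display of a naive human antibody library on the peptide gave the parent. Library AAYL49 holds single substitutions and randomly drawn double and triple substitutions in the CDRs. AlphaSeq pools MATa yeast showing the antibodies with MATalpha yeast showing the peptide. The frequency of each diploid, read from paired DNA barcodes, reflects how well the two displayed proteins bind. Scores were corrected for input abundance and mapped to Kd with protein pairs of known affinity run in the same pool. Mating was done three times.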

Parent scFv Ab-14: VH joined to VL by a (GGGGS)3 linker. Changes lie in the heavy chain CDRs alone.
VH: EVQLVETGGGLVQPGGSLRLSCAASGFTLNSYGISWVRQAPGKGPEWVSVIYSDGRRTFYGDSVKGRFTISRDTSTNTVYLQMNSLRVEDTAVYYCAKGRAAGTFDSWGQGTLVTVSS
VL: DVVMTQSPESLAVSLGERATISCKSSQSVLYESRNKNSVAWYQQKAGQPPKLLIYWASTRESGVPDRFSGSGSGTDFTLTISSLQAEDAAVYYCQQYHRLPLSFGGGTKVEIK

Variants are written as CDR1, CDR2 and CDR3 of the heavy chain (limits as in the source). Parent: GFTLNSYGIS, VIYSDGRRTFYGDSVK, GRAAGTFDS. Values are log10 of the apparent Kd in nM; lower means stronger binding. Replicates are averaged; those with no signal do not enter the mean. Where no diploid with the target was found in any replicate, the entry reads "nd": below detection, most likely a poor binder, though not proof of it. For reference, the parent read 0.65 as the reference entry and 4.11 (one replicate of three) as a member of this library. Empty control strains, which show no peptide, gave a signal in 15% of pairings with library AAYL49; the median was 4.06 and 95% of these signals were weaker than 2.83. No background was subtracted.

Variant GFTLNSYNIS / VIYSDGCRTFYGDSVK / GRAAGTFCS showed nd (0 of 3 replicates).
Variant GFTLNSYGIS / VIYSDGERTFYGDSVK / GRAERTFDS showed nd (0 of 3 replicates).
Variant GFTLNSYGIS / VIYSDGRRTFYIDSHK / GRAAGTFDS showed nd (0 of 3 replicates).
Variant GFTLNSYGIS / VIYFDGRRTFYGDSVK / GRAAWTFDS showed nd (0 of 3 replicates).
Variant GFTLNSYGIS / VIPSDGRRTFYGDSVK / IRAAGTFDR showed nd (0 of 3 replicates).
Variant GFTLNSYGIS / AIYSDGRRTIQGDSVK / GRAAGTFDS showed nd (0 of 3 replicates).
Variant GFTLNSYGIS / VIYSDGRRTFYGDFVK / KRAAATFDS showed 3.40 (1 of 3 replicates).
Variant GFTKNSYGIS / VSYSDCRRTFYGDSVK / GRAAGTFDS showed 4.83 (3 of 3 replicates).
Variant GFTLNSLGIS / VIYSDGRRTFYGDSVK / GRAAGNFDS showed 2.40 (3 of 3 replicates).
Variant GFTLNSMGIS / VIYSDGRNTFYGDSTK / GRAAGTFDS showed nd (0 of 3 replicates).
Variant GFELNSYGPS / VIYSDGRRTFYGDSVK / GRAAGSFDS showed nd (0 of 3 replicates).
Variant GFTLNTYFIS / VIYSDGRRTFYGDSVK / GRAAGTRDS showed nd (0 of 3 replicates).
Variant GFTLNSYGIP / VIYSDSRRTFYGDSVK / GRAAGLFDS showed nd (0 of 3 replicates).
Variant GFTLNSYGIS / VIYSDGRRTFYGDSEK / GRAAATEDS showed 4.76 (2 of 3 replicates).
Variant GFTLNSYGIS / PIYSDSRRTFYGDSVK / KRAAGTFDS showed 4.93 (3 of 3 replicates).
Variant GFTLNSYGIS / VIYSDGEYTFYGDSVK / GRAAGTFDS showed nd (0 of 3 replicates).
Variant GFTLNPYGIS / VIYSDGRRTFYGDSVG / GRAAGYFDS showed nd (0 of 3 replicates).
Variant GFTLNSYGIS / VIYSDGRRTNYGDSVK / GRAAGTFDK showed 2.21 (3 of 3 replicates).

Second part, the sequence after the result:

2.12 (3 of 3 replicates): GFTLNSYGIS / VTYADGRRTFYGDSVK / WRAAGTFDS.
nd (0 of 3 replicates): GFTLNSYGIH / VIYSDGRRHFNGDSVK / GRAAGTFDS.
3.58 (1 of 3 replicates): GFTLGSYGIS / VIYSDGRRTFYGQSVK / GRANGTFDS.
4.05 (1 of 3 replicates): GFTLNSYGIS / VIYSDGGRTFYGKSVK / GRAAGTFVS.
3.17 (1 of 3 replicates): GFTLNSYGIS / VIYSDGRRNFYGDSVK / GRAYGTKDS.
4.20 (1 of 3 replicates): GFTLVSYGIS / VIYSDGRRTFYGDSVK / GRKAGSFDS.
2.99 (2 of 3 replicates): GFTLNQLGIS / VIHSDGRRTFYGDSVK / GRAAGTFDS.
nd (0 of 3 replicates): GFTLNSYGIS / VIMSDGRRTFQGDSVK / GRAAGTFDN.
3.65 (1 of 3 replicates): GFTLNICGIS / VIYSDGGRTFYGDSVK / GRAAGTFDS.
nd (0 of 3 replicates): GFTLNSYSIS / VIYSDGRRTFYGISVK / SRAAGTFDS.
nd (0 of 3 replicates): GFTFNSYGIS / VIYSDGRRTFYGDSHK / GRAAGTFDS.
nd (0 of 3 replicates): GFTLNANGIS / VIYSDGRRTFYRDSVK / GRAAGTFDS.
nd (0 of 3 replicates): GFTLNSYSIS / VIYSDKRRTFYGDCVK / GRAAGTFDS.
nd (0 of 3 replicates): GFTLPSYGIP / VIYSDGRRTFQGDSVK / GRAAGTFDS.
nd (0 of 3 replicates): GFTLNSYGIS / HIYSDDRRTFYGDSPK / GRAAGTFDS.
3.70 (1 of 3 replicates): GFTLNSYGIS / VIYSDGVRTFYGDSMK / GRAAGTFDC.
2.52 (3 of 3 replicates): GFTLNSYFIS / VIYHDGRRTFYGDSVK / GRAAGEFDS.
4.24 (1 of 3 replicates): GFTLNSYGIS / VYYSDGRRTFYGYSVK / GRAAGTFDN.
nd (0 of 3 replicates): GFTLNSYGIS / VIYSDGFRTVYGDSVK / GRAAGTFLS.

Top 6 of the variants detected in all replicates, tightest first:

| CDR-H1 | CDR-H2 | CDR-H3 | mean, log10 nM | replicates with signal |
|---|---|---|---|---|
| GFTLNSYGIS | VTYADGRRTFYGDSVK | WRAAGTFDS | 2.12 | 3/3 |
| GFTLNSYGIS | VIYSDGRRTNYGDSVK | GRAAGTFDK | 2.21 | 3/3 |
| GFTLNSLGIS | VIYSDGRRTFYGDSVK | GRAAGNFDS | 2.40 | 3/3 |
| GFTLNSYFIS | VIYHDGRRTFYGDSVK | GRAAGEFDS | 2.52 | 3/3 |
| GFTKNSYGIS | VSYSDCRRTFYGDSVK | GRAAGTFDS | 4.83 | 3/3 |
| GFTLNSYGIS | PIYSDSRRTFYGDSVK | KRAAGTFDS | 4.93 | 3/3 |

Data: MIT Lincoln Laboratory AlphaSeq set, Engelhart et al. 2022, doi:10.1038/s41597-022-01779-4, as distributed in FLAb.